# Data taken from patent US8829242B2, “Amide derivatives of valproic acid and uses thereof” (dated 2014).
# Experiments:
# tactile allodynia [1] = conditions: cited from earlier work; for potency as anti-neuropathic pain compounds compared to VPA: relative to VPA
# seizures = conditions: relative to VPA; cited from earlier work
# [2] = test system: electrographic status epilepticus; test: Benzodiazepine-resistant electrographic status epilepticus (ESE) rat model; conditions: 130 mg/kg
# [3] = test system: pilocarpine-induced status; test: Pilocarpine-induced status epilepticus test; conditions: for Deaths: pilocarpine test
# tactile allodynia [4] = test: Spinal nerve ligation (SNL, Chung) model of neuropathic pain, tactile allodynia; conditions: rat, i.p., ED50 with 95% confidence interval
# soman-induced seizures = test: Soman-induced seizure rat protocol (EEG)
# [5] = rats, given 0.5 h (30 min) after pilocarpine status
structure (smiles),measurement,setting,value
NCC1(CC(=O)O)CCCCC1,"ED50, neuropathic pain (SNL)",tactile allodynia [1]; reference drug,32 mg/kg
CCCC(CCC)C(N)=O,potency as anti-neuropathic pain compounds compared to VPA,tactile allodynia [1],4 times
same,potency as anticonvulsants compared to VPA,seizures,10 times
CCCC(C(N)=O)C(C)CC (racemic),rat overall mortality in ESE model,[2],without affecting the rat overall mortality
same,effect in benzodiazepine-resistant ESE rat model,"[2]; 1 h and 3 h after dosing, administered 30 min and 45 min after first motor seizure",acute suppressive effect
same,anticonvulsant activity in rat pilocarpine-induced status model,[3]; rat,potent anticonvulsant activity
same,"ED50 mg/kg (95% CI), Pilocarpine Test",[3]; [5],84 mg/kg
same,"ED97 mg/kg (95% CI), Pilocarpine Test",[3]; [5],149 mg/kg and 149 (114-393) mg/kg
same,Deaths,"[3]; rats, 65 mg/kg, time 0.0 h",0
same,Deaths,"[3]; rats, 130 mg/kg, time 0.5 h",0
same,duration of activity,[3]; stated after Table 3,active for prolonged periods of time
same,SNL (ED50 mg/kg),tactile allodynia [4],49 (9-61) mg/kg
same,"next day (seizure, per animal)","soman-induced seizures; 145 mg/kg IP, 40 min after seizure onset, second dose 145 mg/kg at end of day if seizure terminated, individual animals",seizing
same,protection against soman-induced seizures,"soman-induced seizures; 100-174 mg/kg, administered 20 min and 40 min post-seizure onset, for 4-8 hr after nerve gas",protected against soman-induced seizures
CC(C)C(C(N)=O)C(C)C,potency as anti-neuropathic pain compounds compared to VPA,tactile allodynia [1],4 times
same,potency as anticonvulsants compared to VPA,seizures,10 times
CCC(C)C(CC)C(N)=O (centres unmarked),potency as anti-neuropathic pain compounds compared to VPA,tactile allodynia [1],4 times
same,potency as anticonvulsants compared to VPA,seizures,10 times
CCCC(C(N)=O)C(C)C (centres unmarked),potency as anti-neuropathic pain compounds compared to VPA,tactile allodynia [1],4 times
same,potency as anticonvulsants compared to VPA,seizures,10 times

# Where “and” joins values, the source holds several entries; their conditions need not be identical. Equal entries are not always repeated.
